According to patent US11850234B2, “Enhancement of cancer treatment efficiency via the sphingosine-1-phosphate pathway” (priority 2017, dated 2023):

Tested on: CAM-grafted pancreas, lung and ovarian tumors
Test: Neoadjuvant effect in the CAM (Chicken Chorioallantoic Model) with grafted tumors
Type: in vivo
Conditions: compared to CAM-grafted tumors not previously treated with the neoadjuvants
Description: The neoadjuvant effect of benzylphthalazine and imidazole derivatives according to the present invention are assessed for their neoadjuvant effect against pancreas, lung and ovarian tumors.
The neoadjuvant effect is evaluated using the CAM (Chicken Chorioallantoic Model) as described by Sliwinska et al. (Sliwinska et al., Angiogenesis, 2014, 14(4), 779-804).

**Q.** With oxaliplatin as the substance, how does the “cytotoxic effect against CAM-grafted tumors pretreated with neoadjuvant” value read?
**A.** enhanced
